From patent publication US6916905B2, “Dmt-Tic di-and tri-peptidic derivatives and related compositions and methods of use” (The United States of America as represented by the …, priority 2000, dated 2005)

Chains of the proteins cited; added tags and fusions are not shown. Lines headed by an entry give the natural chain unless they say otherwise; changes in a name come on top.
UniProt P33533, whole entry: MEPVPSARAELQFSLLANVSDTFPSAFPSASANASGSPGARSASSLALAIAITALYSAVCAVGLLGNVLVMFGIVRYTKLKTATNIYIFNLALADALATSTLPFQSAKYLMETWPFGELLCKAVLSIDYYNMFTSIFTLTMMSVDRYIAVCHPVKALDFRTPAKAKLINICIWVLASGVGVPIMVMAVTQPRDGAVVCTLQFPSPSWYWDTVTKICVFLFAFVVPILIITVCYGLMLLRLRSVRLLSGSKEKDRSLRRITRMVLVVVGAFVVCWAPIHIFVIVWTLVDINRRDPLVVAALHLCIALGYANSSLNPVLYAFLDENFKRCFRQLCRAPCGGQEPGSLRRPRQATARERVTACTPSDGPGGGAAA

Experiments:
[1] = target: T1, δ-opioid receptors (Rattus norvegicus, UniProt P33533); assay: Rat brain synaptosome (P2) binding, agonist [3H]DPDPE (Example 47); settings: rat brain synaptosomes (P2); mean ± SEM, n in parentheses; read-out: Kiδ(nM) [^3H]DPDPE
T1 construct: assayed with a rat brain synaptosomal preparation (P2); from tissue; host or cells: rat brain P2 synaptosomes

[2] = target: T1, δ-opioid receptors; assay: Rat brain synaptosome (P2) binding, δ antagonist [3H]N,N(CH3)2-Dmt-Tic-OH (Example 47); settings: rat brain synaptosomes (P2); δ antagonist radioligand; mean ± SEM, n in parentheses; read-out: Kiδ(nM) [^3H]N,N(CH3)2-Dmt-Tic-OH

Compound: Cc1cc(O)cc(C)c1CC(N)C(=O)N1Cc2ccccc2C[C@H]1C(=O)O (stereo partly drawn) [H-(R,S)Dmt-Tic-OH, reference compound]
- Ki [1]: 0.46 ± 0.001 nM
- Ki [2]: 0.8 ± 0.19 nM
